Assay [1] in a line: Antimicrobial activity against erythromycin-nonsusceptible Streptococcus Group G clinical isolates assessed as resistant isolates by broth microdilution method. The assay is classed as functional, Streptococcus sp. 'group G'.
Assay [2] is described as follows: Antimicrobial activity against Streptococcus Group G clinical isolates assessed as percent susceptible isolates by broth microdilution method. The assay is classed as functional, Streptococcus sp. 'group G'.
The subject of assay [3] is Streptococcus. In words: Antimicrobial activity against erythromycin-nonsusceptible Streptococcus Group F clinical isolates assessed as percent susceptible isolates by broth microdilution method. Type of assay: functional.
Assay [4] has as its system Streptococcus. As to the kind of experiment: Antimicrobial activity against Streptococcus Group F clinical isolates assessed as percent susceptible isolates by broth microdilution method. Type of assay: functional.
Assay [5] in a line: Antimicrobial activity against erythromycin-nonsusceptible Streptococcus Group C clinical isolates assessed as resistant isolates by broth microdilution method. The assay is classed as functional, Streptococcus sp. 'group C'.
The nature of assay [6]: Antimicrobial activity against Streptococcus Group C clinical isolates assessed as percent susceptible isolates by broth microdilution method. The assay is classed as functional, Streptococcus sp. 'group C'.
Assay [7] has as its system Streptococcus. As to the kind of experiment: Antimicrobial activity against erythromycin-nonsusceptible Streptococcus Group F clinical isolates assessed as resistant isolates by broth microdilution method. The assay is classed as functional.
Assay [8] relates to Streptococcus. As to the kind of experiment: Antimicrobial activity against erythromycin-susceptible Streptococcus Group F clinical isolates assessed as percent susceptible isolates by broth microdilution method. The assay is classed as functional.
Assay [9] is described as follows: Antimicrobial activity against erythromycin-nonsusceptible Streptococcus Group C clinical isolates assessed as percent susceptible isolates by broth microdilution method. Type of assay: functional, Streptococcus sp. 'group C'.
Assay [10] relates to Streptococcus. In words: Antimicrobial activity against erythromycin-susceptible Streptococcus Group F clinical isolates assessed as resistant isolates by broth microdilution method. The assay is classed as functional.
The nature of assay [11]: Antimicrobial activity against erythromycin-nonsusceptible Streptococcus Group G clinical isolates assessed as percent susceptible isolates by broth microdilution method. The assay is classed as functional, Streptococcus sp. 'group G'.

Molecules are shown by their SMILES.

As to `CC[C@H]1OC(=O)[C@H](C)[C@@H](O[C@H]2C[C@@](C)(OC)[C@@H](O)[C@H](C)O2)[C@H](C)[C@@H](O[C@@H]2O[C@H](C)C[C@H](N(C)C)[C@H]2O)[C@](C)(O)C[C@@H](C)C(=O)[C@H](C)[C@@H](O)[C@]1(C)O` [ERYTHROMYCIN], the Activity in assay [1] is reported as 82.4%; in assay [2] it was 79.8%; in the assay with Streptococcus [3], 0%; in the assay on Streptococcus [4] it was 79.8%; in assay [5], 82.4%; in assay [6], 79.8%. Besides, the results for the Activity in the assay on Streptococcus [7] and in the assay on Streptococcus [8] were 82.4% and 100%, respectively.

On to `C[C@H]1COc2c(N3CCN(C)CC3)c(F)cc3c(=O)c(C(=O)O)cn1c23.C[C@H]1COc2c(N3CCN(C)CC3)c(F)cc3c(=O)c(C(=O)O)cn1c23.O` [LEVOFLOXACIN], for which the Activity in [2] came to 98.8%; with Streptococcus [3], 94.1%; in the assay with Streptococcus [4] it was 98.8%; in assay [9] it was 94.1%; in the assay with Streptococcus [10] it was 0%; in assay [6], 98.8%. Moreover, the Activity was found to be 94.1% in assay [11], 0% with Streptococcus [7] and 100% in the assay with Streptococcus [8].

The values above are taken from ChEMBL document CHEMBL1649268, “Comparative in vitro activity profile of oritavancin against recent gram-positive clinical isolates” (2009).
